Only a part is listed here, and it is no random draw. Active and inactive are the calls of the source. Cut-off read from the data, not from the text of the source: active = inhibition above about 23%; inactive = the rest.
Assay: BSA probe fluorescence interference – biochemical, TAMRA-labeled BSA, counter-screen for TCR-CD3 interaction inhibitor project (AID 652035);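 note: 0% = buffer low control and 100% = reference high control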
Details: TAMRA-labeled BSA probe fluorescence counterscreen; at 9.4 µM; active compounds read high
In the case of `Nc1cccc2c([As](=O)(O)O)cccc12`, the inhibition is reported as active: 39.2%.

From PubChem BioAssay AID652035 (The Scripps Research Institute Molecular Screening Center, 2013)
